{"source": "paper PMC8227162", "about": "“Selective Targeting of Breast Cancer by Tafuramycin A Using SMA-Nanoassemblies” (Molecules, 2021)", "key": {"4T1 tumors": {"system": "4T1 tumors", "experiment": "In vivo antitumor effects in 4T1 tumor-bearing Balb/c mice", "conditions": "3 mg/kg (TFA equivalent) IV, 9-day treatment, vs control group", "protocol": "Female Balb/c mice (6–12 weeks old, mean weight = 20–25 g) were supplied by the Laboratory Animal Care Facility of the Arabian Gulf University (AGU), Bahrain. All animals were kept under standard conditions, including controlled temperature (25 °C) and a 12 h light/dark cycle, and had free access to food and drinking water ad libitum. All animal experiments were performed based on the rules and regulations of the Arabian Gulf University Animal Care Policy and approved by the Research and Ethics Committee, REC Approval No: G-E001-PI-12/16.\nTo propagate the tumor, female Balb/c mice (n = 3) were injected with one million 4T1 mammary carcinoma cells bilaterally (right and left side) on the flanks. The tumor was then collected and cut down into small pieces with an average size of 1–3 mm^3 in sterile PBS to sustain tumor viability. Following this, 5 mice of each group were shaved, anesthetized, and inoculated with one small piece of the 4T1 tumor tissue subcutaneously. […] Tumor volume was measured by a manual caliber, and the volume was estimated by using the formula:V (mm^3) = ((transverse section (W)^2 × longitudinal cross section (L))/2)\nTumor volumes were normalized by using the initial tumor volume and represented as the mean ± standard error of the mean (SEM). Additionally, the body weight of mice was measured every day and normalized daily for 9 days."}, "[1]": {"conditions": "20 mg/kg IV, 24 h after injection"}, "selected solid tumors": {"system": "selected solid tumors", "set-up": "method as in PMID 12110316", "conditions": "panel of tumoral cell lines ref 21; cited from earlier work"}}, "note": "“Also recorded” adds a separate entry of the source. Structures can show the parent of a compound that is named as a salt."}
{"smiles": "COc1cc2cc(C(=O)N3CC(CCl)c4c3cc(O)c3ccoc43)[nH]c2c(OC)c1OC", "note": "(stereo not drawn) [TFA, tafuramycin A]", "values": [{"measurement": "Tumor growth (tumor volume changes)", "setting": "4T1 tumors", "value": "slightly slowed down tumor growth; also recorded: significantly slowed growth"}, {"measurement": "Tumor/cardiac ratio", "setting": "[1]", "value": 0.49}, {"measurement": "Activity against selected solid tumors", "setting": "selected solid tumors", "value": "activity in the nanomolar range"}]}
